Measured values from patent US6809079B2, “Compositions and methods for treating female sexual arousal disorder using hydrophobic-calcitonin gene related peptide” (VasoGenix Pharmaceuticals, Inc., priority 2002, dated 2004).

Test system: healthy male volunteers
Test: Topical application of hydrophobic-CGRP cream to induce erections, single blind, placebo controlled study
Assay type: in vivo, humans
Experimental: The study designed was a single blind, placebo controlled, single-dose, single and multiple application study to evaluate the safety and efficacy of CGRP-linolenic acid conjugate (hydrophobic-CGRP) applied topically to induce erections in six healthy male volunteers. Formulation A consisted of hydrophobic-CGRP mixed with Aquaphore cream (petroleum jelly/water emulsion) to a concentration of 10.18 μg/mL, formulation B, the placebo, was the Aquaphore vehicle. Six subjects received both formulation A and formulation B, and were instructed to apply each formulation on successive days (i.e. formulation A on one day, and formulation B the next day), and to do this on 3 separate occasions (n=18 applications). For each application, the subjects applied 0.5-1.0 mL of the cream to the ventral surface of the penis, and gently worked the cream into the skin without any additional manipulation or the assistance of visual aids. The subjects were instructed to determine if an erection suitable for intercourse was induced, time to onset of erection, and duration of erection for each application and write down the outcome. Two subjects who obtained consistent erections with formulation A in the first study, were asked to reapply the cream, and then after the erection subsided to immediately apply the cream 2 more times immediately following an erection (n=6 applications). […] Average time of onset of was 10 minutes for both formulations, with the erections lasting 15-40 minutes (averaging 20 minutes) for hydrophobic-CGRP versus a few minutes for placebo.
The results observed were due to the pharmacological effects of CGRP. […] Currently there are no products on the market or in development that permit unrestricted re-application due to formulation irritation, systemic side effects, and tachyphylaxis. An optimized formulation containing specific dermal penetration enhancers has the potential to increase efficacy, decrease the time of onset, and extend the duration of an erection, as well as permit re-application.

[1] = multiple applications, two subjects
[2] = single application subjects, topical cream
[3] = topical application, healthy male volunteers

Q: For “hydrophobic-CGRP: calcitonin gene-related peptide conjugated to linolenic acid as an ester; tested as formulation A in Aquaphore cream at 10.18 μg/mL”, which “repeat erections suitable for intercourse (share of applications)” value (multiple applications, 5 of 6 applications, two subjects, reapplied immediately after erection subsided) is on record?
A: 83%

Q: And the duration of erection [1]?
A: greater than 10 minutes

Q: What about the “tachyphylaxis in response to multiple applications” value [1] of the same substance?
A: no tachyphylaxis

Q: What about the “time of onset of erection” value [1] of the same substance?
A: 10 min

Q: What about the “average time of onset of erection” value [2] of the same substance?
A: 10 min

Q: And the “duration of erection (average)” value [2]?
A: 20 min

Q: And the “duration of erection (range)” value [2]?
A: 15 to 40 min

Q: And the “erections achieved (share of applications)” value (single application, 15 of 18 applications, six subjects, 0.5-1.0 mL cream of 10.18 μg/mL, topical to ventral surface of penis)?
A: 83%

Q: What about the adverse effects observed (topical application, all subjects) of the same substance?
A: mild, localized, transient flushing of the penile skin

Q: And the “local sensations reported (pain, burning, tingling, warmth)” value [3]?
A: no pain, burning, tingling or warm sensations were reported

Q: And the systemic adverse effects [3]?
A: systemic adverse effects were observed
